These results are taken from PubChem BioAssay AID706 (SRMLSC, 2007).

The list shows a part of the results, in another mix than the full data. The source made the active and inactive calls.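 Rule for the calls: active = growth inhibition above a set limit, 3 SD over mean compound inhibition, in both replicates (cut at about 43% in these data); inconclusive = above the limit in only one replicate; inactive = at or below the limit in both replicates.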

The nature of this assay: S. cerevisiae growth inhibition in restrictive medium, OD615, pilot screen, restrictive growth control, yeast lifespan reduction project (AID 706).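 Note: modified DeaD lifespan yeast strain shifted to restrictive glucose medium.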 Conditions: OD615, 48 h, at 10 µM, active compounds read high. Put shortly:
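Assay system: engineered S. cerevisiae DeaD strain; Buffer or medium: CSMM-D glucose medium; Dosing: 10 µM compound, 0.25% DMSO; Times: cell pre-growth 4 h, compound exposure 48 h, 30 °C; Detection: absorbance (optical density) measured at 615 nm.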
As to `Fc1ccccc1NC1CCN(Cc2ccccc2)CC1`, the growth inhibition is inactive: -16.8%.
